The target in this test is EGFR [L858R] (LR) (Homo sapiens, UniProt P00533, L858R). To be noted: read-out: LR.

Protein sequences, listed by entry. Tags and fused reporters are not part of them. Residues count along the entry.
UniProt P00533, 668-1210 L858R limits assumed: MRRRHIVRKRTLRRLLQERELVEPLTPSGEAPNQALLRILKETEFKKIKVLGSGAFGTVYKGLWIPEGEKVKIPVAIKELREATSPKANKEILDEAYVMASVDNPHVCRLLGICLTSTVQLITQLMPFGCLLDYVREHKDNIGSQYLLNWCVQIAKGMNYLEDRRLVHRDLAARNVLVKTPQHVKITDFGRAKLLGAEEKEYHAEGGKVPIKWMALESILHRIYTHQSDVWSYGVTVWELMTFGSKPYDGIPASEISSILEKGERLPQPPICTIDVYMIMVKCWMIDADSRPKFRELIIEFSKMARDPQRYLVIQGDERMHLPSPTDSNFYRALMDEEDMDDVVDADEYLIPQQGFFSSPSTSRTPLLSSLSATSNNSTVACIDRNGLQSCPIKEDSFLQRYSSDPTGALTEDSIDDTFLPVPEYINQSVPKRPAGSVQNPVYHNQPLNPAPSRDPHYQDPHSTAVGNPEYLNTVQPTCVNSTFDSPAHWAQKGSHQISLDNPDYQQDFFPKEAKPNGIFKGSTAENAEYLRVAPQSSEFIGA

As to `C=CC(=O)Nc1ccc(OC)c(Nc2cc(-c3[nH]c(CC)nc3-c3cccc(NC(=O)c4cccc5c4NC(=O)c4ccccc4N5)c3)ccn2)c1`, the KI (inactivation) turned out to be 610 nM.

For the origin of these results see publication PMC10543509.
